This passage reports Ki and EC50 results from ChEMBL document CHEMBL4354845, “Discovery and Structure-Activity Relationships of Nociceptin Receptor Partial Agonists That Afford Symptom Ablation in Parkinson's Disease Models” (J Med Chem, 2020).

By Ki is commonly meant the equilibrium dissociation constant of an inhibitor or competing ligand from its target. By EC50 is commonly meant the concentration at which the effect is half-maximal. A high value points to a need for much substance.

Assay [1] addresses Delta-type opioid receptor (Homo sapiens, UniProt P41143). Kind of assay: Displacement of [3H]DPDPE from human DOP expressed in CHO cell membrane incubated for 60 mins by liquid scintillation counting method. In general terms: In a radioligand displacement assay an active substance lowers the binding of a labelled ligand.
The target of assay [2] is T1, Nociceptin receptor (Homo sapiens, UniProt P41146). In words: Displacement of [3H]N/OFQ from human NOP expressed in CHO cell membrane incubated for 60 mins by liquid scintillation counting method.
In assay [3] the target is T1, Nociceptin receptor. In words: Agonist activity at human NOP expressed in CHO cell membrane incubated for 60 mins by [35S]GTPgammaS binding assay. In general terms: GTPγS resists hydrolysis and so accumulates on activated G proteins.
The target of assay [4] is T2, Mu-type opioid receptor (Homo sapiens, UniProt P35372). Kind of assay: Displacement of [3H]DAMGO from human MOP expressed in CHO cell membrane incubated for 60 mins by liquid scintillation counting method.
The target of assay [5] is Kappa-type opioid receptor (Homo sapiens, UniProt P41145). In words: Displacement of [3H]U69593 from human KOP expressed in CHO cell membrane incubated for 60 mins by liquid scintillation counting method.
The target of assay [6] is T2, Mu-type opioid receptor. Kind of assay: Agonist activity at human MOP expressed in CHO cell membrane incubated for 60 mins by [35S]GTPgammaS binding assay.

The structures appear in SMILES notation. Some results are limits rather than exact numbers.

As for `CC(C)[C@H]1CC[C@@H](N2CCC(n3cc(CNC(=O)[C@@H](N)CCCNC(=N)N)c4ccccc43)CC2)CC1`, the Ki in assay [1] is over 10000 nM; at Nociceptin receptor [2] it was 11 nM. The compound also registered an EC50 on Nociceptin receptor [3] of over 10000 nM.
With `CC(C)[C@H]1CC[C@@H](N2CCC(n3cc(CCCN)c4ccccc43)CC2)CC1`, the Ki is over 10000 nM in assay [1], 20.9 nM on Nociceptin receptor [2], 46.2 nM on Mu-type opioid receptor [4] and 1320 nM in assay [5]. Moreover, the EC50 at Mu-type opioid receptor [6] came to 1760 nM; at Nociceptin receptor [3], 249 nM.
In the case of `CCNCC(=O)NCc1cn(C2CCN([C@H]3CC[C@@H](C(C)C)CC3)CC2)c2ccccc12`, the Ki in assay [1] was over 10000 nM; at Nociceptin receptor [2] it was 15.9 nM. Also, on Nociceptin receptor [3], the 50% effective concentration (EC50) is 277 nM.
On to `CC(C)[C@H]1CC[C@@H](N2CCC(n3cc(CN4CCC(N)CC4)c4ccccc43)CC2)CC1`, for which the Ki in assay [1] was over 10000 nM; on Nociceptin receptor [2], 216 nM.
Turning to `CC(C)[C@H]1CC[C@@H](N2CCC(n3cc(C(N)=O)c4ccccc43)CC2)CC1`, the Ki in assay [1] turned out to be 2710 nM; on Nociceptin receptor [2], 129 nM; on Mu-type opioid receptor [4], 453 nM; in assay [5], 446 nM.
Regarding `CC(C)[C@H]1CC[C@@H](N2CCC(n3cc(CCNC(N)=S)c4ccccc43)CC2)CC1`, the Ki in assay [1] was over 10000 nM; at Nociceptin receptor [2], 24.4 nM; on Mu-type opioid receptor [4] it was 227 nM; in assay [5] it was 81 nM. This compound also came in with a half-maximal effective concentration (EC50) on Nociceptin receptor [3] of over 10000 nM.
Take `CC(C)[C@H]1CC[C@@H](N2CCC(n3cc(CNC(=O)CCCCCN)c4ccccc43)CC2)CC1`: the Ki in assay [1] is over 10000 nM; at Nociceptin receptor [2], 23.1 nM; at Mu-type opioid receptor [4], 949 nM; in assay [5], over 10000 nM. Besides, on Nociceptin receptor [3], the half-maximal effective concentration (EC50) was determined as 464 nM.
Take `CC(C)[C@H]1CC[C@@H](N2CCC(n3cc(CN4CCCC4)c4ccccc43)CC2)CC1`: the inhibition constant Ki was over 10000 nM in assay [1], 1.47 nM at Nociceptin receptor [2], 453 nM at Mu-type opioid receptor [4] and 461 nM in assay [5]. The compound further returned a half-maximal effective concentration (EC50) at Nociceptin receptor [3] of 97.4 nM.
On to `CC(C)[C@H]1CC[C@@H](N2CCC(n3cc(CN4CCC(O)CC4)c4ccccc43)CC2)CC1`, for which the inhibitory constant (Ki) was found to be 6030 nM in assay [1] and 64 nM on Nociceptin receptor [2]. The midpoint of the response on Nociceptin receptor [3], the EC50, lay at 446 nM.
`CC(C)[C@H]1CC[C@@H](N2CCC(n3cc(CCN)c4ccccc43)CC2)CC1.Cl.Cl`: the values for the Ki (in assay [1]; on Nociceptin receptor [2]) were over 10000 nM and 2.27 nM, respectively. On Nociceptin receptor [3], the EC50 was determined as 139 nM.
The like results for `CC(C)[C@H]1CC[C@@H](N2CCC(n3cc(CCCNC(N)=S)c4ccccc43)CC2)CC1` were, in that order, over 10000 nM, 31.8 nM and 175 nM.
On to `CC(C)[C@H]1CC[C@@H](N2CCC(n3cc(/C=N/O)c4ccccc43)CC2)CC1`, for which the inhibition constant Ki was 1690 nM in assay [1], 2.17 nM at Nociceptin receptor [2], 56.4 nM on Mu-type opioid receptor [4] and over 10000 nM in assay [5]. In addition, the EC50 on Mu-type opioid receptor [6] came out at 3200 nM; at Nociceptin receptor [3], 67 nM.
Regarding `CC(C)[C@H]1CC[C@@H](N2CCC(n3cc(CNCCO)c4ccccc43)CC2)CC1`, the Ki in assay [1] was over 10000 nM; on Nociceptin receptor [2] it was 136 nM.
On to `CC(C)[C@H]1CC[C@@H](N2CCC(n3cc(CNC(N)=S)c4ccccc43)CC2)CC1`, for which the Ki was 4070 nM in assay [1], 10.5 nM on Nociceptin receptor [2], 71.3 nM on Mu-type opioid receptor [4] and 1330 nM in assay [5]. Further, the figures for the EC50 on Mu-type opioid receptor [6] and at Nociceptin receptor [3] were over 10000 nM and 343 nM, respectively.
`CC(C)[C@H]1CC[C@@H](N2CCC(n3cc(CN(C)C)c4ccccc43)CC2)CC1`: the inhibitory constant (Ki) is over 10000 nM in assay [1], 43.8 nM on Nociceptin receptor [2] and over 10000 nM in assay [5]. Besides, the half-maximal effective concentration (EC50) on Nociceptin receptor [3] turned out to be 532 nM.
For the compound `CC(C)[C@H]1CC[C@@H](N2CCC(n3cc(CN4CC[C@@H](O)C4)c4ccccc43)CC2)CC1`, the Ki in assay [1] is over 10000 nM; on Nociceptin receptor [2] it was 9.46 nM. The compound also had an EC50 on Nociceptin receptor [3] of 575 nM.
Consider `CC(C)[C@H]1CC[C@@H](N2CCC(N3CCc4ccccc43)CC2)CC1`, for which the Ki in assay [1] is 3070 nM; at Nociceptin receptor [2] it was 10.3 nM; at Mu-type opioid receptor [4] it was 604 nM; in assay [5] it was 562 nM. This compound also registered an EC50 on Nociceptin receptor [3] of 54.5 nM.
For `CC(C)[C@H]1CC[C@@H](N2CCC(n3cc(CN4CC(O)C4)c4ccccc43)CC2)CC1`, the inhibition constant Ki is over 10000 nM in assay [1] and 23.6 nM at Nociceptin receptor [2]. The compound further gave an EC50 at Nociceptin receptor [3] of 1560 nM.
